Assay results taken from ChEMBL document CHEMBL5715957.

Experiments:
Homo sapiens [1] = organism: Homo sapiens; experiment: Selectivity ratio of Ki for human DRD4 to Ki for DRD2 (unknown origin)
Homo sapiens [2] = organism: Homo sapiens; experiment: Selectivity ratio of Ki for human DRD4 to Ki for DRD3 (unknown origin)
Homo sapiens [3] = organism: Homo sapiens; experiment: Selectivity ratio of Ki for human DRD4 to Ki for DRD4 F2.61V / L3.28F mutant (unknown origin)

Measured: Ratio Ki

Cc1ccc2nc(CNCCCOc3ccccc3)cc(O)c2c1
> 3300: all assays above

O=c1cc(CNCCCOc2cccnc2)[nH]c2ccc(F)cc12
> 3300: all assays above
